Results: PMC3790809

Tested on: Nc1ncnc2c1ncn2[C@@H]1O[C@H](COP(=O)(O)OP(=O)(O)OP(=O)(O)O)[C@@H](O)[C@H]1O
Test: purified protein
Details: 50 mM Tris pH 8.0, 10 mM MgCl2, 30 °C, 2 µM enzyme, monomer-dodecamer mixture, Hill coefficient 1.931±0.115

## YsaN-His (YsaN; YE3544) (Yersinia enterocolitica subsp. enterocolitica 8081)
  K0.5: 714 ± 14.84 µM
